Conditions: in n-butanol, 293.2 K

solubility (mole fraction): 0.0325
Structure (SMILES): CC(C)(C)NSc1nc2ccccc2s1

From BigSolDB 2.1
